The subject of the data set is mouse colon cancer MC38. In words: Subcutaneous xenograft model of mouse colon cancer MC38. It is filed as in vivo, C57BL/6 or Bablc mice. How it is done: The method in subcutaneous xenograft tumor was as follows. The cultured specific tumor cells were digested and collected by centrifugation, and washed with sterile physiological saline for two times and then counted. The cell concentration was adjusted to 5×10^6/ml by physiological saline, and 0.2 ml of cell suspension was inoculated to the right armpit of C57BL/6 or Bablc mice. After inoculation, the animals were randomly divided into two groups in next day. Each group had 6-7 mice. After weighing, the animals were dosed once each day to monitor tumor size. When the tumor size reached to a certain size, the mice was weighed and blood was collected from mice orbit and then the mice were killed by removing the neck. The tumor tissue, thymus tissue and spleen tissue were collected and weighed respectively. Finally, the tumor growth inhibition rate was calculated, and the tumor growth inhibition rate was used to evaluate the level of anti-tumor effect.

In the case of `O=C(O)[C@H](CO)NCc1cc(Cl)c(OCc2cccc(-c3ccccc3)c2Br)cc1OCc1cccnc1` [Example 4, (S)—N-(4-(2-bromo-3-phenylbenzyloxy)-5-chloro-2-(pyridin-3-yl-methyleneoxy)benzyl) serine], the “Body weight (g) Mean ± SD Begin” value runs as follows: (5 mg/kg) 18.2 ± 0.3 g; (10 mg/kg) 18.2 ± 0.3 g; (20 mg/kg) 18.2 ± 0.4 g.
